Test results as given in ChEMBL document CHEMBL4431320 (J Med Chem, 2016).

The chains behind the UniProt entries cited, without tags or fusion partners.
UniProt P06276, whole entry: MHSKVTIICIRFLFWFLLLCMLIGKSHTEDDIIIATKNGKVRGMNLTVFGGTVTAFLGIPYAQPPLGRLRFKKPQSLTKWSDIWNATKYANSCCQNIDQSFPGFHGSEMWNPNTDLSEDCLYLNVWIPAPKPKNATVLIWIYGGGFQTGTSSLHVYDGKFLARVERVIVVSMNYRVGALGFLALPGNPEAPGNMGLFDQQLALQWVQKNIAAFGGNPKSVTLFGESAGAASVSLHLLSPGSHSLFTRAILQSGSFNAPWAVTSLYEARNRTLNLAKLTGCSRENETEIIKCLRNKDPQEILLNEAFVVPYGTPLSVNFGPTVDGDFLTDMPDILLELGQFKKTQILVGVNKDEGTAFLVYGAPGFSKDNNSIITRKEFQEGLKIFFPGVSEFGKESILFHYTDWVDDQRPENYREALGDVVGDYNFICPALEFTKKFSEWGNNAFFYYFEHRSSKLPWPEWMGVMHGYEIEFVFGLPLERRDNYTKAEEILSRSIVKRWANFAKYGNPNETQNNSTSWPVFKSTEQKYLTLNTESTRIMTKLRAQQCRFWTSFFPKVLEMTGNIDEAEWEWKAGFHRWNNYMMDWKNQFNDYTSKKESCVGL

Molecular target: Cholinesterase (Homo sapiens, UniProt P06276)

CCN(C)C(=O)Oc1cccc([C@H](C)N(C)C)c1 [RIVASTIGMINE]
IC50: 803 nM
